# Laboratory results published in PubChem BioAssay AID2589 (National Center for Advancing Translational Sciences (NCATS), 2010).
# Chains of the proteins cited; added tags and fusions are not shown. Lines headed by an entry give the natural chain unless they say otherwise; changes in a name come on top.
# UniProt P04062: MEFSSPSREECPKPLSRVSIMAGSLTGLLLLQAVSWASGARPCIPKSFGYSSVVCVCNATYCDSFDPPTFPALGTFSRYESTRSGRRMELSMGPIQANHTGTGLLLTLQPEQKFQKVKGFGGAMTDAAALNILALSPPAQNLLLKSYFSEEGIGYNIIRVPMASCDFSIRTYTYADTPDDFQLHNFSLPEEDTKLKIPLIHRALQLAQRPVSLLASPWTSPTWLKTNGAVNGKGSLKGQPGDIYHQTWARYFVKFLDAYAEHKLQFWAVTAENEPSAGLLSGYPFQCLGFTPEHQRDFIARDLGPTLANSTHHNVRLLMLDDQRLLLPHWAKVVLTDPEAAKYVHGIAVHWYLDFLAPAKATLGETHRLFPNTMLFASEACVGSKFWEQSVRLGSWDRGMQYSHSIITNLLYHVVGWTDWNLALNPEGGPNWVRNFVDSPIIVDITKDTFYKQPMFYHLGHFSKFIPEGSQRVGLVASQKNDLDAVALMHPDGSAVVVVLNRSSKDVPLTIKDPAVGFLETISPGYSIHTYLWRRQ
# The entries are a selection whose mix differs from that of the whole data set. The source made the active and inactive calls. Calls follow the shape of the dose curve; as a rule, active = well fitted curve in the direction sought with a large enough effect; inactive = no such curve, though single readings can be large or run the other way.
# Target: Lysosomal acid glucosylceramidase (Homo sapiens) (UniProt P04062)
# Test: qHTS Assay for Inhibitors and Activators of N370S glucocerebrosidase as a Potential Chaperone Treatment of Gaucher Disease: Chaperone Activity in Non-Gauche Fibroblasts After Multi-day Incubation with Compound
# Details: Wild-type fibroblasts, GC immunofluorescence, 5-day incubation
# Description: NIH Chemical Genomics Center [NCGC] NIH Molecular Libraries Probe Production Centers Network [MLPCN] MLPCN Grant: MH086442-01 Assay Submitter (PI): Wei Zheng Glucocerebrosidase (GC) catalyzes the hydrolysis of beta-glucocerebroside to glucose and ceramide in lysosomes. Mutations in the glucocerebrosidase gene result in Gaucher disease, an autosomal recessive lysosomal storage disorder. Many of the mutations encountered in patients with Gaucher disease are missense alterations that may cause misfolding, decreased stability and/or mistrafficking of this lysosomal protein. […] These inhibitors include iminosugar analogs and three non-iminosugar inhibitors identified from a previous HTS of 62,000 compounds with the wild type recombinant enzyme. However, the enhancement of enzyme activity by the chaperone action of an enzyme inhibitor must be balanced against the direct inhibition of the enzyme. An enzyme activator could also function as a chaperone by binding to the enzyme and helping to correct its misfolding and mistrafficking. […] This assay attempts to quantitate translocated glucocerebrosidase protein in patient-derived fibroblasts following extended compound incubation. […]
# NCGC Assay Protocol Summary: 1. […] Visualized using a fluorescence microscope and the intensity of fluorescence in the selected areas were calculated. […]
row,Compound,Potency
1,Cc1cc(N2CCOCC2)nc2ccc(NC(=O)C3CCCCC3)cc12,active: 31.6 µM
